In PubChem BioAssay AID434973 (Sanford-Burnham Center for Chemical Genomics, 2010):
This is a selection; strong and weak results do not stand in their true shares. Calls of active or inactive are those of the source.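 Rule for the calls: active = inhibition above about 50% at the single test dose (limit read from the data); inactive = the rest.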

Chains of the proteins cited; added tags and fusions are not shown. Residues count along the entry.
UniProt Q9BQF6, 706-1050 limits assumed: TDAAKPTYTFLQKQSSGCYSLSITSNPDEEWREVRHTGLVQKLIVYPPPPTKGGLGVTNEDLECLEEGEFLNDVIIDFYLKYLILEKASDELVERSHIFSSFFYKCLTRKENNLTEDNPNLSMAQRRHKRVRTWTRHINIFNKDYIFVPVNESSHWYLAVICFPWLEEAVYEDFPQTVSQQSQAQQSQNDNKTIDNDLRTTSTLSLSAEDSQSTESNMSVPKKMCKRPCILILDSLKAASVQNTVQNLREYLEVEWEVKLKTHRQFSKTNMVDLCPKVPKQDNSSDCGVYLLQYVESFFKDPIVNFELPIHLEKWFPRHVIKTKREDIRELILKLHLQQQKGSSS

target: Sentrin-specific protease 7 (Homo sapiens) (UniProt Q9BQF6); assay: SENP7 protease inhibitors, primary screen, biochemical, luminescence, uHTS (AID 434973); details: recombinant SENP7, Z-RLRGG-aminoluciferin luminescence, 40 min; at 5 µM; stronger effect = higher value;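 note: plate controls were DMSO with enzyme for no effect and no enzyme buffer wells for full effect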

Compound	inhibition
CC(C)=N/N=C(\N)N[N+](=O)[O-]	inactive: 10.7%
